Laboratory results as given in ChEMBL document CHEMBL1140324, “Rational design of non-nucleoside, potent, and orally bioavailable adenosine deaminase inhibitors: predicting enzyme conformational change and metabolism” (J Med Chem, 2005).

Target: T1, Adenosine deaminase (Homo sapiens, UniProt P00813)
T1 sequence (P00813 whole entry): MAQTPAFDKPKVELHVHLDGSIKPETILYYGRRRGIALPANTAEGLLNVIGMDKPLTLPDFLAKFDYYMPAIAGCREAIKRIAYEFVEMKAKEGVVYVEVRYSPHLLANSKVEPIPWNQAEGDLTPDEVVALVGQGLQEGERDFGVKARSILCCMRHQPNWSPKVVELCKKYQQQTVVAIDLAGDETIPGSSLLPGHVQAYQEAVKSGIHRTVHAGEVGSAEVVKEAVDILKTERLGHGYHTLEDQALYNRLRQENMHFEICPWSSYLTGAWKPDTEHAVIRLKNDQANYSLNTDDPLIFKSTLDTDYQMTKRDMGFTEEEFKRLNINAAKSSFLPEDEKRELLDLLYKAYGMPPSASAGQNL
Test: Inhibitory concentration against adenosine deaminase

- IC50: 8.6 nM
SMILES: C[C@H](O)[C@@H](CCc1cccc2nc(-c3ccc(Cl)cc3)oc12)n1cnc(C(N)=O)c1
